Laboratory results published in patent US9475813B2 (priority 2013, dated 2016).

Protein sequences, listed by entry. Tags and fused reporters are not part of them. Lines headed by an entry give the natural chain unless they say otherwise; changes in a name come on top.
UniProt P29597: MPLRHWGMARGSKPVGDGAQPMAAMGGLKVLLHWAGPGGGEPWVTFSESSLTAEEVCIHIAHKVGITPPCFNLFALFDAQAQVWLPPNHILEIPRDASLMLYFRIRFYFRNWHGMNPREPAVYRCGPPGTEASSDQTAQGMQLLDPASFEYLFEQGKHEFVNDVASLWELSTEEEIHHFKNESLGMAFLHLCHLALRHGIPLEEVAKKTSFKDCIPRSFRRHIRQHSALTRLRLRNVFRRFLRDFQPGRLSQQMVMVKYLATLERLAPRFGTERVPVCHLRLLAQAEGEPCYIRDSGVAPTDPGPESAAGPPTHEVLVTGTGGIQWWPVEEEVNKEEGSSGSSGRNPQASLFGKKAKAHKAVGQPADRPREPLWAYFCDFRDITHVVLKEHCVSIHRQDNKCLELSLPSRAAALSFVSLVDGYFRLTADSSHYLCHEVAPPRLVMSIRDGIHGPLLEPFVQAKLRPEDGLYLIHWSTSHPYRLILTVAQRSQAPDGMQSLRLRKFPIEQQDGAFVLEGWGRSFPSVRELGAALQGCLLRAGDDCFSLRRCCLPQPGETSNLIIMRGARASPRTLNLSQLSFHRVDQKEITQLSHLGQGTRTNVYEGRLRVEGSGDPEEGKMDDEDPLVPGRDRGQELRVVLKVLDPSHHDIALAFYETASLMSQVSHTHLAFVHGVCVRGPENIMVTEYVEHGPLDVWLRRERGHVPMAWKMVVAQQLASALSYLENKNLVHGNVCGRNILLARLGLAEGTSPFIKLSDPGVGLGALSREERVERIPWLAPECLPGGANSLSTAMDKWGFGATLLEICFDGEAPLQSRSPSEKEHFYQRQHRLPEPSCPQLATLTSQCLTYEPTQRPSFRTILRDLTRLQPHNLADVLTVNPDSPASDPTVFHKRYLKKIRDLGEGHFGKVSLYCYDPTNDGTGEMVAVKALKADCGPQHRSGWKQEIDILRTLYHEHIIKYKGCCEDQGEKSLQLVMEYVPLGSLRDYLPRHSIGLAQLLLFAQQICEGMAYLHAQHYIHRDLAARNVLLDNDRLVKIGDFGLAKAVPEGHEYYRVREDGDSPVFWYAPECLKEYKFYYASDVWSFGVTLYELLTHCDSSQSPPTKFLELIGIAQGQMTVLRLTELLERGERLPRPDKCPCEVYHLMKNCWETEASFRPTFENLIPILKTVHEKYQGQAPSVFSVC

Molecular target: Tyk2 (Homo sapiens (Human), UniProt P29597)
Test: biochemical

Structure (SMILES)	IC50 [µM]
O=C1c2cnc3[nH]ccc3c2N([C@H]2CC[C@H](CNCC(F)(F)F)CC2)CN1CC1CCCO1 (relative stereo) [Ex 26, 3-[(tetrahydrofuran-2-yl)methyl]-1-(trans-4-{[(2,2,2-trifluoroethyl)amino]methyl}cyclohexyl)-2,3-dihydro-1H-pyrrolo[3′,2′: 5,6]pyrido[4,3-d]pyrimidin-4(7H)-one]	0.1
CSCN1CN([C@H]2CC[C@H](CNCC(F)(F)F)CC2)c2c(cnc3[nH]ccc23)C1=O [Ex 21, 3-[(methylthio)methyl)-1-(trans-4-{[(2,2,2-trifluoroethyl)amino]methyl}cyclohexyl)-2,3-dihydro-1H-pyrrolo[3′,2′: 5,6]pyrido[4,3-d]pyrimidin-4(7H)-one]	0.16
